According to US20220409582A1:

What was measured:
TFK-1 cell line = assay: Cell TitreGlo cell viability, TFK-1 cholangiocarcinoma cells; type: cell-based, human
HuCC-T1 cell line = assay: Cell TitreGlo cell viability, HuCC-T1 cholangiocarcinoma cells; conditions: IC50 in H69 normal cells / IC50 in HuCCT-1; panobinostat + secondary drug at IC20
CC-SW-1 cell line = assay: Cell TitreGlo cell viability, CC-SW-1 cholangiocarcinoma cells; conditions: IC50 in H69 normal cells / IC50 in CC-SW-1; panobinostat + secondary drug at IC20
EGI-1 cell line = assay: Cell TitreGlo cell viability, EGI-1 cholangiocarcinoma cells; conditions: IC50 in H69 normal cells / IC50 in EGI-1; panobinostat + secondary drug at IC20

SMILES	IC50 (TFK-1 cell line; Homo sapiens, 48 h)	Therapeutic index Combination (HuCC-T1 cell line)	Therapeutic index Combination (CC-SW-1 cell line)	Therapeutic index Combination (EGI-1 cell line)	Therapeutic index Combination (TFK-1 cell line; IC50 in H69 normal cells / IC50 in TFK-1, panobinostat + secondary drug at IC20)
CCNC(=O)C[C@@H]1N=C(c2ccc(Cl)cc2)c2cc(OC)ccc2-n2c(C)nnc21 [Molibresib, 2-[(4S)-6-(4-chlorophenyl)-8-methoxy-1-methyl-4H-[1,2,4]triazolo[4,3-a][1,4]benzodiazepin-4-yl]-N-ethylacetamide]	181 nM				
CC(=O)Nc1cccc(-n2c(=O)n(C3CC3)c(=O)c3c(Nc4ccc(I)cc4F)n(C)c(=O)c(C)c32)c1 [Trametinib]		1.9	10.3	2.2	2.2
